Test results as given in patent US20240034765A1, “SCG2 NEUROPEPTIDES AND USES THEREOF” (PRESIDENT AND FELLOWS OF HARVARD COLLEGE, priority 2020, published 2024).

Key:
[1] = tested on: CCK-IN to CA1 PC; assay: IN-to-CA1 PC paired recordings of unitary IPSC (uIPSC), CCK-IN, after kainic acid; settings: slices prepared 24 h after exposure to kainic acid, compared with vehicle
[2] = tested on: PV-IN to CA1 PC; assay: IN-to-CA1 PC paired recordings of unitary IPSC (uIPSC), PV-IN, after kainic acid; settings: slices prepared 24 h after exposure to kainic acid, compared with vehicle

## C=C(C)[C@H]1CN[C@H](C(=O)O)[C@H]1CC(=O)O [kainic acid]
[1]
  amplitudes of CCK-uIPSC in CA1 PCs, fold smaller: 2.2 fold
[2]
  amplitudes of PV-uIPSC in CA1 PCs, fold larger: 3.2 fold
